Results: patent US8673949B2 (Bristol-Myers Squibb Company, priority 2008, dated 2014)

Test: Histopathology of multiple tissues in mice dosed weekly IP
Conditions: 1 mpk and 10 mpk IP once weekly for 2 or 6 months, liver, kidney, heart, testes, adrenal gland, bone marrow, peripheral nerve, stomach, intestines

In the case of `C/C1=C/C[C@@H](/C(C)=C/c2csc(C)n2)OC(=O)C[C@H](O)C(C)(C)C(=O)[C@H](C)[C@@H](O)[C@@H](C)CCC1` [Epothilone D, epothilone D], the “histopathological abnormalities in multiple tissues” value is reported as “no histopathological abnormalities were observed”.
